Literature values in PMC7674238 (Accounts of chemical research, 2020).

System: VanA VRE
Conditions: vancomycin-resistant strains

CN[C@H](CC(C)C)C(=O)N[C@H]1C(=O)N[C@@H](CC(N)=O)C(=O)N[C@H]2C(=O)N[C@H]3C(=O)N[C@H](C(=O)N[C@H](C(=O)NCc4ccc(NC(=N)N)cc4)c4cc(O)cc(O)c4-c4cc3ccc4O)[C@H](O)c3ccc(c(Cl)c3)Oc3cc2cc(c3OC2OC(CO)C(O)[C@H](O)C2O[C@H]2CC(C)(NCc3ccc(-c4ccc(Cl)cc4)cc3)[C@H](O)[C@H](C)O2)Oc2ccc(cc2Cl)[C@H]1O (stereo partly shown) [compound 33, GBn-CBP-vancomycin]
further improvement in antimicrobial activity over CBP-vancomycin: ≤ 8 fold
